Source: US6958141B2, “Rhenium and technetium complexes containing a hypoxia-localizing moiety” (Bracco International B.V., priority 1991, dated 2005)

Tested on: Bovine brain microvessel endothelial cells
Experiment: Ability to cross endothelial monolayers (permeability index)
Assay type: in vitro ADME
Conditions: permeability index from PSe, endothelial monolayer, compared with ^3H-water and ^14C-sucrose, first 10 minutes, 37° C.
Excerpt: The examples which follow utilize a model of cell permeability based on the studies of Audus and Borchardt (“Bovine Brain Microvessel Endothelial Cell Monolayers as a Model System for the Blood-Brain Barrier”, Ann. New York Accad. Sci., 1988; 9-18). The model consists of a cultured monolayer of bovine brain endothelial cells, which form tight intercellular junctions. Transit of compounds across the monolayer reflects the ability of such compounds to cross the intact cell membrane by passive, active and/or facilitated diffusion mechanisms. The rate of transit is compared with ^3H2O (a highly permeable tracer) and ^14C-sucrose (a non-permeable tracer). […]
This system was placed into a 37° C., 5% CO2 incubator which contains an orbiting tissue culture plate shaker for agitation and 10 μL samples, from both inside (donor) and outside (acceptor) compartments, were taken simultaneously from a set of 4 Anocell inserts. These samples were counted first in a Gamma counter then, after 72 hours, in a scintillation counter with dual channel capabilities. The fraction of radioactivity transported from the donor to the acceptor wells at each time point over the first 10 minutes of the study was calculated. The average percent of radioactivity transported was plotted vs. time and the slope was estimated by linear regression analysis. […]

Tc-99m Propylene Amine Oxime [^99mTc-PnAO, reference compound]
Pi: 64.4
